Assay results from publication PMC7684765 (Journal of medicinal chemistry, 2020).

system: PTZ-induced seizures in zebrafish larvae; assay: Zebrafish PTZ-induced seizure model; type: in vivo; details: 10 μM

| SMILES | protection against PTZ-induced seizures (in words) |
| --- | --- |
| C#CCNC1=CC(=O)c2ccccc2C1=O [2h] | did not significantly reduce distance traveled |
| CC1=C(NCCC(C)(C)C)C(=O)c2ccccc2C1=O [5a, 2-((3,3-dimethylbutyl)amino)-3-methylnaphthalene-1,4-dione] | no protection |
| CC1=C(NCCC(C)C)C(=O)c2ccccc2C1=O [5b, 2-(isopentylamino)-3-methylnaphthalene-1,4-dione] | no protection |
